US20120258108A1
pKd: −log10 of the molar value.

Protein sequences, listed by entry. Tags and fused reporters are not part of them. Residues count along the entry.
UniProt P01375, 77-233 limits assumed: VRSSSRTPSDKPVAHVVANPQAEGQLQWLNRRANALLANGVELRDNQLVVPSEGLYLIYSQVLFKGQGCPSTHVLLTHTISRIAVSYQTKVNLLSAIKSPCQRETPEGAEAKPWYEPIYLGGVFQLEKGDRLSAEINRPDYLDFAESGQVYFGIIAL

What was measured:
[1] = molecular target: Recombinant Human TNFα/TNFSF1A (human) (UniProt P01375); assay: cell-based or functional assay
[2] = molecular target: Recombinant Human TNFα/TNFSF1A (human) (UniProt P01375); assay: SPR (BIACORE)

| TNFα Neutralization Assay EC50 nM (L929 cells) [1] [nM] | pKd [2] | koff [2] [s⁻¹] | kon [2] [M⁻¹ s⁻¹] | Substance |
| --- | --- | --- | --- | --- |
| 0.058 | – | – | – | AB291 (antibody) |
| – | 10.01 | 0.00011 | 1.1e+06 | AB291 (antibody; other documents disagree on this pair) |
